Experiments:
rabbit jejunum = experiment: Spontaneous peristaltic activity on rabbit jejunum; conditions: Oryctolagus cuniculus, read-out: concentration required to obtain the maximum effect
receptors 5HT4 = conditions: cited from earlier work
[1] = system: gastro-intestinal motility; conditions: cited from earlier work
[2] = system: parasympathomimetic activity; conditions: cited from earlier work
dopamine receptors = conditions: cited from earlier work

In the case of COc1cc(N)c(Cl)cc1C(=O)NC1CCN(CCCOc2ccc(F)cc2)CC1OC (centres unmarked) [cisapride, reference compound], the EC (maximum effect) (rabbit jejunum) is listed as 0.03 µM, the “interaction with receptors 5HT4” value (receptors 5HT4) is listed as “interaction with serotoninergic receptors 5HT4” and the “gastro-intestinal motility / prokinetic activity” value [1] is listed as “stimulates intestinal motility”. For the same compound, the direct parasympathomimetic activity [2] was “practically no” and the “antagonist property of the dopamine receptors” value (dopamine receptors) was “practically no antagonist property of the dopamine receptors”.

Source: US5446152A, “Heterocyclic compounds active in gastro-intestinal pathologies” (priority 1993, dated 1995)
